Reference: ChEMBL document CHEMBL3351655, “Scaffold decoration at positions 5 and 8 of 1,2,4-triazolo[1,5-c]pyrimidines to explore the antagonist profiling on adenosine receptors: a preliminary structure-activity relationship study” (J Med Chem, 2014)

Molecular target: T1, Adenosine receptor A2b (Homo sapiens) (UniProt P29275)
T1 sequence (whole entry): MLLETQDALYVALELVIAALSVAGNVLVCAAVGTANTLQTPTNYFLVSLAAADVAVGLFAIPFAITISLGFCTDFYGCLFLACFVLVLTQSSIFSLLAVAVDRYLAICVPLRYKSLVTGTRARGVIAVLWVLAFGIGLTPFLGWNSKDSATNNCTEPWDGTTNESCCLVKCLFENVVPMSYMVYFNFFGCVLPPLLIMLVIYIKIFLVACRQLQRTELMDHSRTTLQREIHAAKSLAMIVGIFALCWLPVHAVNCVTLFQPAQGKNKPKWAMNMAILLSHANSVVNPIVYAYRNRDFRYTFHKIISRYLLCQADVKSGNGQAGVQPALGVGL
Assay: Binding affinity to human adenosine A2B receptor

Activity: 28 nM
SMILES: Nc1nc(NCCc2ccc(O)cc2)nc2nc(-c3ccco3)nn12
